# Curated experimental data: boiling point values

Values as listed in the OPERA 2.9 repository of K. Mansouri.

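The numbers are reported measurements, compiled and curated for the OPERA QSAR suite. A listed value is a point estimate from one report or more. How each value was measured is not recorded, so precision varies. A value may pool stereoisomers or salt forms, and the file does not say which form was measured. Unmarked limits or estimates from the upstream databases cannot be ruled out.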

The boiling point refers to atmospheric pressure (760 mmHg), by the definition of the set.
"via" names the databases from which the curators took the value.

structure (SMILES)	BP (°C)	via
CC(=CC(C)C)C(C)OC(C)(C)COC(=O)C1CC1 (stereo not given)	309.9	eChemPortal
CCC(C)=NO[Si](C)(ON=C(C)CC)ON=C(C)CC	250	eChemPortal
CCCCc1ccc(-c2ccc(-c3ccc(CC)cc3)cc2F)cc1	440	eChemPortal
CCCCCCCCCCCCCCCC[Si](Cl)(Cl)Cl	269	eChemPortal
C=CCOC(=O)OCCOCCOC(=O)OCC=C	362.9	eChemPortal
CCC=CCCCCCCCC(=O)OC	267.9	eChemPortal
CCOc1ccc(-c2ccc(C)cc2)c(F)c1F	327.5	eChemPortal
CCC=C1OC(=O)c2ccccc21	318	OCHEM
CC1(C)COP(=O)(NCCNP2(=O)OCC(C)(C)CO2)OC1	274	eChemPortal
C=CC(C)(CCC=C(C)C)OC(=O)CC (stereo not given)	223	eChemPortal
O=S(=O)(F)C(F)(F)C(F)(F)OC(F)(Cl)C(F)(F)Cl (stereo not given)	121.2	eChemPortal
CCCCCCCCCCCCCC(=O)OCC(COC(=O)CCCCCCCCCCCCC)OC(=O)CCCCCCCCCCCCC	394	eChemPortal
O=C1CCC(C(=O)O)N1 (stereo not given)	265.4	eChemPortal
CC(C)[C@@]12CC[C@@](C)(O1)[C@@H](O)C2 (relative stereo)	225.8	eChemPortal
O=CC(F)(F)C(F)(F)C(F)(F)C(F)(F)C(F)(F)C(F)(F)C(F)(F)C(F)(F)C(F)(F)C(F)(F)F	132	OCHEM
FC(F)=C(F)C(F)(F)OC(F)(F)C(F)(F)C(F)(F)F	60.8	eChemPortal
CC(C)(C=NCCCCCCN=CC(C)(C)CN1CCOCC1)CN1CCOCC1	293.4	eChemPortal
CC(C)c1ccc2c(c1)OCC(=O)CO2	267	eChemPortal
CCCCC(CC)C(=O)OCCOCCOCCOC(=O)C(CC)CCCC (stereo not given)	358.9	OFMPub, eChemPortal
CCCC(C)CCCO (stereo not given)	188	OCHEM
FC(F)(Br)CBr	92.5	OCHEM
CCCC(F)(F)C(F)(F)C(F)(F)F	64.5	ChemicalBook
CC(=O)OCCC(F)(F)C(F)(F)C(F)(F)F	137.2	ChemicalBook
C=C(C)C(=O)OCCCCCCOc1ccc(/C=C/C(=O)OC)cc1	272.3	eChemPortal
CCO[Si](CCCC1CC(=O)OC1=O)(OCC)OCC (stereo not given)	359.5	eChemPortal
CCCC[Si](C)(C)C	115	OCHEM
O=C1CC(C(=O)O)CC(=O)C1=C(O)C1CC1 (stereo not given)	220	OCHEM
Cc1ccc([C@@H](C)N)cc1	205	eChemPortal
CC(CCC(COC(=O)CC(O)C(=O)OCC(CCC(C)CC(C)(C)C)C(C)CC(C)(C)C)C(C)CC(C)(C)C)CC(C)(C)C (stereo not given)	359.3	eChemPortal
CCOC(=S)C(=S)OCC	235	OCHEM
CC(O)CN(CC(C)O)C(=O)c1ccccc1 (stereo not given)	308.4	eChemPortal
CC1(C)[C@H]2[C@H](O)OC(=O)[C@H]21	270.9	eChemPortal
COC(=O)CC(C)(C)C(Cl)CC(Cl)(Cl)C(F)(F)F (stereo not given)	257.4	eChemPortal
C=CC(C)C(O)c1ccc(Cl)cc1 (stereo not given)	254	eChemPortal
C=CCOCC(CC)(CO)CO	271.9	eChemPortal
C=CCOCC(=C)C(=O)OC	175	eChemPortal
NCc1ccc(CN)cc1	276.7	eChemPortal
CC(CCO)CC1=CCCCC1 (stereo not given)	249	eChemPortal
CCCCCCCCCC(=O)Oc1ccc(C(=O)O)cc1	430	eChemPortal
CCCc1ccc(-c2ccc(-c3ccc(CC)cc3)c(F)c2F)cc1	431	eChemPortal
F/C(=C\Cl)C(F)F	54.25	eChemPortal
CCCCCCOC1CCC(C)(C)O1 (stereo not given)	224	eChemPortal
CC1(C)C=C(C2(C)OCC(C)(C)CO2)CCC1	254.6	eChemPortal
CCCc1ccc(-c2ccc(-c3ccc(CC)cc3)cc2F)cc1	433	eChemPortal
CC(=O)CCCC(C)CCCC(C)C (stereo not given)	253.5	eChemPortal
C=CCSC(=O)n1c(N)c(-c2ccccc2C)c(=O)n1C(C)C	240	OCHEM
CC(=O)OC(C)c1ccccc1 (racemic)	224.9	eChemPortal
Cc1ccsc1C1=NOC(C)(COCc2c(F)cccc2F)C1 (stereo not given)	403	OCHEM
Nc1ccc(N=Nc2ccccc2)c(N)c1	293	eChemPortal
C=CC(=O)OCCOC	160	PubChem, eChemPortal
Cl/C(=C\c1ccccc1)c1ccccc1	322	OCHEM
O=CC(F)(F)C(F)(F)C(F)(F)C(F)(F)C(F)(F)C(F)(F)F	91	OCHEM
Cc1ccc(C(C)C)cc1Cl	216	OCHEM

Extract of 6 entries:

| structure (SMILES) | BP (°C) | via |
|---|---|---|
| NCc1ccc(CN)cc1 | 276.7 | eChemPortal |
| CC1(C)COP(=O)(NCCNP2(=O)OCC(C)(C)CO2)OC1 | 274 | eChemPortal |
| Cl/C(=C\c1ccccc1)c1ccccc1 | 322 | OCHEM |
| O=C1CC(C(=O)O)CC(=O)C1=C(O)C1CC1 (stereo not given) | 220 | OCHEM |
| CCCC(F)(F)C(F)(F)C(F)(F)F | 64.5 | ChemicalBook |
| Cc1ccc([C@@H](C)N)cc1 | 205 | eChemPortal |